## Antibody variant affinities, Ab-14 heavy chain, assay 1

Source: Engelhart et al. 2022 (doi:10.1038/s41597-022-01779-4), MIT Lincoln Laboratory and A-Alpha Bio; data file from the FLAb repository.

Antigen: PDVDLGDISGINAS, a 14-residue peptide of the SARS-CoV-2 spike HR2 region.

The variants keep the light chain, the linker and the frameworks of Ab-14 (scFv order VH, a (GGGGS)3 linker, VL).
VH: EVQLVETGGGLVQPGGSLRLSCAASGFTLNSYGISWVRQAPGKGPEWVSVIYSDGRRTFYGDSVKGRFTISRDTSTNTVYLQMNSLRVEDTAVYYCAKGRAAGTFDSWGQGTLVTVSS
VL: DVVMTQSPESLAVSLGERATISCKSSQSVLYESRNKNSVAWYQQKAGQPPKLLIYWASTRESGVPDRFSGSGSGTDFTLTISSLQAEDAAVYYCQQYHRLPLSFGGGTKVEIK

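The library (AAYL49) carries one to three amino acid substitutions per variant, with no insertions or deletions. Affinity was read by AlphaSeq, a pooled yeast mating assay with surface-displayed partners. Pairs that bind mate more often; barcode pairs of the diploids are counted by sequencing. A regression on co-assayed BCL2-family reference pairs converts the normalised counts of each replicate to an apparent Kd. Mating was done three times.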

The parent's heavy chain CDRs are GFTLNSYGIS, VIYSDGRRTFYGDSVK, GRAAGTFDS; each variant's own CDRs replace them letter for letter.
The read-out is the apparent dissociation constant on a log10 scale (nM): the lower, the stronger.
An entry "nd" has no value in the source: the pair was not observed among the diploids in that replicate. This suggests poor binding but is not conclusive.
Background: pairings of library AAYL49 with three empty control strains gave a value in 15% of cases (median 4.06, 5th percentile 2.83). Values in that range, when seen in few replicates, are hard to tell from nonspecific mating. Also given: how often the same scFv was detected with the empty control strains, with their mean in brackets.
Parent in this assay: reference entry 0.65, copy in this library 4.11 (one replicate of three).

| CDR-H1 | CDR-H2 | CDR-H3 | replicates, log10 nM | control signals |
|---|---|---|---|---|
| GFTLNSKGIS | VIYSDGRRTFYGDSVK | GRAAGTFDS | nd nd nd | 1 of 9 (4.56) |
| GFTLNSYGIS | VIYSDGRRTAYGDSVK | DRAIGTFDS | 0.64 0.90 1.06 | 2 of 9 (3.74) |
| GFTLNSYGIS | VIYSDGRRTFHGHSVK | GRAAGTFTS | 4.70 nd 4.68 | 2 of 9 (4.91) |
| GFTLNSYGIF | VIYSDGRRTFYGDSVK | GRAAGTFHS | nd nd 4.18 | 1 of 9 (3.99) |
| GPTLNSYGIS | TPYSDGRRTFYGDSVK | GRAAGTFDS | nd nd nd | 6 of 9 (4.35) |
| GLTLNSYEIS | VIYSDGRRTFYGDSVK | GRASGTFDS | nd nd 5.79 | 1 of 9 (4.53) |
| GFTLNSYGIS | VIYSDGRRTFYGDSVK | GRAAGTWDS | 1.86 1.63 1.90 | 1 of 9 (3.33) |
| GFTLNMYGIY | VIYSDGRRTFYGDSVK | GGAAGTFDS | 6.06 nd 4.22 | 3 of 9 (3.89) |
| GFTLNSYPIS | VITSDGRRTCYGDSVK | GRAAGTFDS | nd nd nd | 0 of 9 |
| GFTLNSYGIS | VIYRDGLRTFYGDSVK | CRAAGTFDS | 4.37 nd nd | 0 of 9 |
| GFTLNSYGIS | VIYSDGRRTFYGDSIK | GRAAGTFDS | 4.61 4.44 6.47 | 3 of 9 (4.14) |
| GGTLHSYGIS | VIYSDGWRTFYGDSVK | GRAAGTFDS | nd nd nd | 1 of 9 (5.21) |
| GFTLNSYGIS | VIMSDGRRTFYGDSVD | GRIAGTFDS | 5.02 3.82 nd | 3 of 9 (4.33) |
| GFTLNSYGIS | DIYSDGRRTFYGDRVK | GRAAGTFDT | nd nd nd | 0 of 9 |
| GNTLNSYNIS | VIYSDGRRTFYHDSVK | GRAAGTFDS | 4.76 5.10 nd | 2 of 9 (3.74) |
| KFTKNSYGIS | VIYSDNRRTFYGDSVK | GRAAGTFDS | nd nd nd | 0 of 9 |
| GFTLNSYGIS | VIYSDGTRTFYGGSVK | GRAAGTFDS | 2.14 2.41 1.89 | 0 of 9 |
| GFTLNSYGIS | VIYSDGRDTFYGDSVK | GLTAGTFDS | nd nd nd | 0 of 9 |
| GFTLNSYGIS | VIYSDGRRCFYADSVK | GTAAGTFDS | 1.27 1.32 1.30 | 1 of 9 (4.89) |
| GFTLNSYGIS | VIYSDGRRTFYLDSVK | PRAAGTFDS | nd nd nd | 3 of 9 (3.69) |
| GFTLNSYGIS | VIYSDGRQTFYGDSVK | FPAAGTFDS | 3.69 3.59 nd | 1 of 9 (3.33) |
| GFTLNSYGIS | VIRSDGRRTFYGDSVK | GRAAGPFDS | 5.77 nd nd | 0 of 9 |
| GFTLNSYGIS | VYDSDGRRTFYGDSVK | GRAAGTFDL | nd nd nd | 1 of 9 (3.26) |
| GFTAWSYGIS | VIYSMGRRTFYGDSVK | GRAAGTFDS | nd nd nd | 2 of 9 (4.10) |
| DFTLNSYGIS | VIYSDGRRTFYGDSVC | GRMAGTFDS | 4.62 3.14 4.56 | 3 of 9 (4.08) |
| GFTLDSYGIS | VIYSDGRRTFYGDSVK | GKAAYTFDS | nd nd nd | 1 of 9 (3.38) |
| GFTLNSYGIS | VIYSDGRRTFYDDSVK | QRAAQTFDS | nd 2.61 nd | 1 of 9 (4.37) |
| GFTLESYGIS | VIYSDGRRTFYGDSVK | GRASGTFDS | 3.46 3.74 4.12 | 1 of 9 (3.56) |
| GFTLNSYCIS | VIYSDGRRTWYGDSVK | GRASGTFDS | nd nd nd | 0 of 9 |
| GFTLNSYGIS | VIYSDGRNTFHGDFVK | GRAAGTFDS | 4.38 3.61 nd | 2 of 9 (3.76) |
| GFTLNSCGIS | VIYSDGRRTFYGDSVK | SRAANTFDS | nd nd nd | 2 of 9 (4.87) |
| GFTLNIYGIS | VIYSDFRRTFDGDSVK | GRAAGTFDS | nd nd nd | 2 of 9 (3.92) |